This passage reports IC50 results from patent US9255100B2 (BAYER INTELLECTUAL PROPERTY GMBH, priority 2010, dated 2016).

By IC50 is commonly meant the concentration needed to halve the response being measured.

The target in this assay is T1, N-terminally GST-tagged human full length recombinant Mps-1 kinase (Homo sapiens, UniProt P33981).
T1 construct: N-terminally GST-tagged human full length recombinant Mps-1 kinase; purchased Invitrogen, Karslruhe, Germany PV4071
T1 sequence (P33981 1-857): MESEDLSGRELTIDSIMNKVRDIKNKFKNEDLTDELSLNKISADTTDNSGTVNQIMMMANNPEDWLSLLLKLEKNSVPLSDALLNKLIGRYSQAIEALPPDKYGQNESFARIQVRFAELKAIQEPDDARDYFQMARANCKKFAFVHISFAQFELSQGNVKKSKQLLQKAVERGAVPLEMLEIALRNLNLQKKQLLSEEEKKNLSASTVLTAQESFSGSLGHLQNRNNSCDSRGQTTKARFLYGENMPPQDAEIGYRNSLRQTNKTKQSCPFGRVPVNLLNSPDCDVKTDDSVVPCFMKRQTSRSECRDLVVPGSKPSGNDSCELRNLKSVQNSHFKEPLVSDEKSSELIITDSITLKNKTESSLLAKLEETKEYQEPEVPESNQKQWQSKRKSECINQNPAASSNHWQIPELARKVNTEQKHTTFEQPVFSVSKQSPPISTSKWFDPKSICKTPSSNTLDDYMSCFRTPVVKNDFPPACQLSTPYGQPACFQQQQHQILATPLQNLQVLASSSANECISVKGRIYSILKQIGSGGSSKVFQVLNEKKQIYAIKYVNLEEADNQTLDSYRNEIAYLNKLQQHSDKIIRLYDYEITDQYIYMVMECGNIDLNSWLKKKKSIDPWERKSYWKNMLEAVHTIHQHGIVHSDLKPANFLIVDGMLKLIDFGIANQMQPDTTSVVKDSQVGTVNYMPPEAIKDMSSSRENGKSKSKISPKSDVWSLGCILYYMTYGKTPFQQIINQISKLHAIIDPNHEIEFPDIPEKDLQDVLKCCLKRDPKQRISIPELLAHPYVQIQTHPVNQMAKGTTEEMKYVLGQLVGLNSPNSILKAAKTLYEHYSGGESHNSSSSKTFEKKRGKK
Kind of assay: Mps-1 kinase assay (TR-FRET). Format: biochemical. The conditions noted are these: Mps1 IC50 [nM], 10 μM ATP, 1 μM peptide substrate, 60 min at 22° C. As to the method: The human kinase Mps-1 phosphorylates a biotinylated substrate peptide. Detection of the phosphorylated product is achieved by time-resolved fluorescence resonance energy transfer (TR-FRET) from Europium-labelled anti-phospho-Serine/Threonine antibody as donor to streptavidin labelled with cross-linked allophycocyanin (SA-XLent) as acceptor. Compounds are tested for their inhibition of the kinase activity.
N-terminally GST-tagged human full length recombinant Mps-1 kinase (purchased from Invitrogen, Karslruhe, Germany, cat. no PV4071) was used. As substrate for the kinase reaction a biotinylated peptide of the amino-acid sequence […] (C-terminus in amide form, purchased from Biosynthan GmbH, Berlin) was used. […]
The resulting mixture was incubated 1 h at 22° C. to allow the binding of the phosphorylated peptide to the anti-phospho(Ser/Thr)-Europium-antibody. Subsequently the amount of phosphorylated substrate was evaluated by measurement of the resonance energy transfer from the Europium-labelled anti-phospho(Ser/Thr) antibody to the Streptavidin-XLent. […] The “blank-corrected normalized ratio” (a Viewlux specific readout, similar to the traditional ratio of the emissions at 665 nm and at 622 nm, in which blank and Eu-donor crosstalk are subtracted from the 665 nm signal before the ratio is calculated) was taken as the measure for the amount of phosphorylated substrate.

Regarding `CC(C)CNc1cc(-c2cccc3ncccc23)nn2c(-c3ccc(C(=O)NC4CC4)cc3)cnc12` [Example 111, N-cyclopropyl-4-{8-[(2-methylpropyl)amino]-6-(quinolin-5-yl)imidazo [1,2-b]pyridazin-3-yl} benzamide], the IC50 worked out at 6.3 nM.

Turning to `Cc1cc(-c2cc(NCC(C)(C)O)c3ncc(-c4ccc(C(=O)NC5CC5)c(C)c4)n3n2)ccn1` [Example 164, N-cyclopropyl-4-{8-[(2-hydroxy-2-methylpropyl)amino]-6-(2-methylpyridin-4-yl)imidazo[1,2-b]pyridazin-3-yl}-2-methylbenzamide], the IC50 amounted to 6.3 nM.
